# AlphaSeq binding of Ab-91 heavy chain variants to a spike HR2 peptide

Values reported by Engelhart et al. 2022, doi:10.1038/s41597-022-01779-4 (FLAb copy).

All variants were tested on one target, the spike HR2 peptide PDVDLGDISGINAS (SARS-CoV-2).

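The starting antibody came from a phage panning campaign against this peptide. Variants in AAYL51 differ from the parent at up to three CDR positions; double and triple changes were sampled at random. The assay is AlphaSeq: two haploid yeast populations carry antibody and antigen on their surface. Pairs that bind mate more often; barcode pairs of the diploids are counted by sequencing. Scores were corrected for input abundance and mapped to Kd with protein pairs of known affinity run in the same pool. There are three technical replicates.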

Ab-91 is the parent antibody, in scFv form: VL, then the linker GGGGSGGGGSGGGGS, then VH. The light chain is unchanged in all variants.
VL: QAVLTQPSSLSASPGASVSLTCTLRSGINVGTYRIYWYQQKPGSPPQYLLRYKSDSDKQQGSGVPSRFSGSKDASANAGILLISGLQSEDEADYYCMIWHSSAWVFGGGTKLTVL
VH: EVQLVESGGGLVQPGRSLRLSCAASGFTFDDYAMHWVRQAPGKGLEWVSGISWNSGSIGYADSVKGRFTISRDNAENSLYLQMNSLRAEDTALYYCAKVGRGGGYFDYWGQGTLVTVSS

The parent's heavy chain CDRs are GFTFDDYAMH, GISWNSGSIGYADSVK, VGRGGGYFDY; each variant's own CDRs replace them letter for letter. This list gathers variants with a substitution at F29 (VH, numbered from residue 1). Numbers give log10(Kd / nM), so 0 is 1 nM and 3 is 1 µM. Smaller is tighter. An entry "nd" has no value in the source: the pair was not observed among the diploids in that replicate. This suggests poor binding but is not conclusive. Three control strains display no target. For library AAYL51, 21% of the pairings with them gave a signal, with a median of 4.54 and one signal in twenty below 3.26, so weak values seen in few replicates may be background.

The variant GFTQWDYAMH | GISWNSGSIGYADSVK | VGRGGGHFDY showed 4.63, nd, 4.92. The variant GFTGDDYAMH | GISWNSGTIGYADSVK | VGRDGGYFDY showed nd, 4.90, 5.79. For GFTQDDYAML | GISCNSGSIGYADSVK | VGRGGGYFDY, the assay gave nd, nd, nd. The variant GFTVDDYAMH | GISLNSGSIGYADSVK | VGRGGGYFDY showed 5.24, nd, nd. For GFTWEDYAMH | GISWNSGSIGYADSVK | VGRGGGYFRY, the assay gave nd, nd, nd. The variant GFTPDDYAMH | GISWNSGSSGYADSVK | VWRGGGYFDY showed nd, nd, nd.

The variant GFTLDDYAMT | GISWNSGSIGYADSVK | VGRGGPYFDY gave nd, nd, nd. The variant GFTCDDYAMH | GISRNSGSIGYADSVK | VGRGGGYFDY showed 5.27, 3.75, 5.09. With GFTLDDYAMH | GISWNSGSIGYAMCVK | VGRGGGYFDY the result was nd, 5.35, nd. The variant GFTKDDYAMH | GVSWNSGSIGYADSVS | VGRGGGYFDY showed 5.31, 4.07, nd. With GFTEDDYAMH | GISANSGSIGYAWSVK | VGRGGGYFDY the result was 4.04, nd, 5.21. The variant GFTPDDYAMH | GISWNSGSIGKADSVK | VGRGFGYFDY showed 5.82, nd, 5.55.

The variant GFTQDDYAMH | GIRWNSGSIGYADSVK | VQRGGGYFDY gave 4.79, nd, nd. The variant GFTMDSYAMH | GISWNSGSIGYAWSVK | VGRGGGYFDY gave 2.97, 3.00, 2.83. The variant GFTVCDYAMH | GISWNSGSIGYADSVK | VGRGGGYFDY gave 6.47, 6.71, nd. For GFTDDDYPMH | GISWNSGSIGYADSVK | VGRGGGLFDY, the assay gave nd, 5.02, nd. The variant YFTHDDYAMH | GISWNSGSIGYADSVK | VGRGGGYFDY gave nd, nd, 3.76. The variant GFTSDDYAMH | GISWNSGSIGYADSKK | VGRGGMYFDY showed nd, 3.80, nd.

For GFTSDDYAMH | GISWNSGSIGYADSTK | VGRGGEYFDY, the assay gave 4.18, 4.98, nd. The variant GFTMDDYAGH | GTSWNSGSIGYADSVK | VGRGGGYFDY showed nd, nd, nd. With GFTLDDYACH | GISWNSGSIGYADSVK | VPRGGGYFDY the result was nd, nd, nd. The variant GFTWDDYAAH | WISWNSGSIGYADSVK | VGRGGGYFDY showed 3.06, 5.94, 4.59. For GFTCDDYAMH | EISWCSGSIGYADSVK | VGRGGGYFDY, the assay gave nd, nd, nd. The variant GFTMDDYAMH | GISWNSGSIGCADSVK | VGRGGGYFDY showed nd, 4.87, 5.35.

For GFTLDGYAMI | GISWNSGSIGYADSVK | VGRGGGYFDY, the assay gave 4.24, 4.91, nd. The variant GFTLDTYAMH | GISWNSGSIGYADSKK | VGRGGGYFDY gave nd, nd, nd. For GFTLDYYAMH | GISWNSGSIGYADSVK | VGRGPGYFDY, the assay gave nd, nd, nd. With GFTGDDYAMH | YISWNSGSIGYIDSVK | VGRGGGYFDY the result was nd, nd, nd. For GFTADDYAFH | GISWNSGSIGMADSVK | VGRGGGYFDY, the assay gave 4.61, 4.89, nd. The variant GFTLDDYAMH | GISWFSGSIGYADSVK | VGRGQGYFDY gave nd, nd, nd.

For GFTRDDTAMH | GISWNSGSIGYADSVE | VGRGGGYFDY, the assay gave nd, nd, nd. With RFTGDDYAMH | GISWNSGSIGYADSVK | VGVGGGYFDY the result was nd, nd, nd. The variant GFTQDDYAMH | GISWHSGSIGYADSVK | VGRGQGYFDY showed nd, nd, nd. The variant GDTMDDYAMH | GISWNSGSIGYADSVK | VGRGGGYFDY showed nd, 4.97, 4.52. With GFTQDDYAMH | SISHNSGSIGYADSVK | VGRGGGYFDY the result was nd, 3.56, nd. With GFTMDDYVMH | GISWNSGSIGYADSVK | VGRGGGYFMY the result was nd, nd, nd.

The first 6 entries again:

CDR-H1,CDR-H2,CDR-H3,"replicates, log10 nM"
GFTQWDYAMH,GISWNSGSIGYADSVK,VGRGGGHFDY,"4.63, nd, 4.92"
GFTGDDYAMH,GISWNSGTIGYADSVK,VGRDGGYFDY,"nd, 4.90, 5.79"
GFTQDDYAML,GISCNSGSIGYADSVK,VGRGGGYFDY,"nd, nd, nd"
GFTVDDYAMH,GISLNSGSIGYADSVK,VGRGGGYFDY,"5.24, nd, nd"
GFTWEDYAMH,GISWNSGSIGYADSVK,VGRGGGYFRY,"nd, nd, nd"
GFTPDDYAMH,GISWNSGSSGYADSVK,VWRGGGYFDY,"nd, nd, nd"